In patent publication US9611297B1, “Compositions and methods for the treatment of cast nephropathy and related conditions” (Thrasos Therapeutics Inc., priority 2016, dated 2017):
Like-named read-outs stand apart in the source and are kept apart here.

Target: T1, uromodulin binding to light chain BER (subtype lambda) (Homo sapiens, UniProt P07911)
T1 construct: Uromodulin was precipitated from fresh urine from healthy donors using 0.58M NaCl; from tissue; host or cells: urine of healthy human donors (uromodulin); SP2/0 cells (light chain BER)
Assay: ELISA: inhibition of biotin-uromodulin binding to plate-coated light chain clone BER
Description: Uromodulin was precipitated from fresh urine from healthy donors using 0.58M NaCl. The precipitate was then washed with 0.58M NaCl and resuspended in water. […] Samples were then stored at −20° C. without lyophilization.
Enzyme-linked immunosorbant assays (ELISA) were performed on the disclosed peptides. Plates were coated with the following light chain clones overnight at 4° C.: 0.05 uM BER (subtype lambda, isolated from SP2/0 cells), 0.2 uM ROC (subtype kappa, isolated from CHO cells), and 0.3 uM BEN (subtype lambda, isolated from CHO cells). The plates were washed and treated with bovine serum albumin (BSA) overnight at 4° C. For peptide plates, 10 nM biotin-uromodulin was mixed with peptide overnight at 4° C.

[1] = light chain BER 0.05 uM coated, 10 nM biotin-uromodulin, read-out: Binding Inhibition (IC50 uM) BER

| SMILES | IC50 [µM] | IC50 [1] [µM] |
| --- | --- | --- |
| CC[C@H](C)[C@@H]1NC(=O)[C@H](CO)NC(=O)[C@H](Cc2ccc(O)cc2)NC(=O)[C@H](CO)NC(=O)[C@H](CCC(N)=O)NC(=O)[C@H](CCC(N)=O)NC(=O)[C@@H](NC(=O)CCCCCN)CSSC[C@@H](C(=O)N[C@H](CCCCN)C(=O)N[C@H](CCCCN)C(N)=O)NC(=O)[C@H]([C@@H](C)O)NC(=O)[C@H](Cc2ccc(O)cc2)NC(=O)[C@@H]2CCCN2C1=O [compound 21] | 49.8 |  |
| CC[C@H](C)[C@@H]1NC(=O)[C@H](CO)NC(=O)[C@H](Cc2ccc(O)cc2)NC(=O)[C@H](CO)NC(=O)[C@H](CCC(N)=O)NC(=O)[C@H](CCC(=O)O)NC(=O)[C@@H](NC(=O)CCCCCN)CSSC[C@@H](C(=O)N[C@@H](CCCCN)C(=O)N[C@@H](CCCCN)C(N)=O)NC(=O)[C@H]([C@@H](C)O)NC(=O)[C@H](Cc2ccc(O)cc2)NC(=O)[C@@H]2CCCN2C1=O [compound 28] | 24.9 |  |
| CC[C@H](C)[C@@H]1NC(=O)[C@H](CO)NC(=O)[C@H](CCC(=O)O)NC(=O)[C@H](CO)NC(=O)[C@H](CCC(N)=O)NC(=O)[C@H](CCC(N)=O)NC(=O)[C@@H](NC(=O)CCCCCN)CSSC[C@@H](C(=O)N[C@@H](CCCCN)C(=O)N[C@@H](CCCCN)C(N)=O)NC(=O)[C@H]([C@@H](C)O)NC(=O)[C@H](Cc2ccc(O)cc2)NC(=O)[C@@H]2CCCN2C1=O [compound 31] | 25.9 |  |
| CC[C@H](C)[C@@H]1NC(=O)[C@H](CO)NC(=O)[C@H](Cc2ccc(O)cc2)NC(=O)[C@H](CO)NC(=O)[C@H](CCC(N)=O)NC(=O)[C@H](CCCNC(=N)N)NC(=O)[C@@H](NC(=O)CCCCCN)CSSC[C@@H](C(=O)N[C@@H](CCCCN)C(=O)N[C@@H](CCCCN)C(N)=O)NC(=O)[C@H]([C@@H](C)O)NC(=O)[C@H](Cc2ccc(O)cc2)NC(=O)[C@@H]2CCCN2C1=O [compound 37] | 49.8 |  |
| CC[C@H](C)[C@@H]1NC(=O)[C@H](CCCNC(=N)N)NC(=O)[C@H](Cc2ccc(O)cc2)NC(=O)[C@H](CO)NC(=O)[C@H](CCC(N)=O)NC(=O)[C@H](CCC(N)=O)NC(=O)[C@@H](NC(=O)CCCCCN)CSSC[C@@H](C(=O)N[C@@H](CCCCN)C(=O)N[C@@H](CCCCN)C(N)=O)NC(=O)[C@H]([C@@H](C)O)NC(=O)[C@H](Cc2ccc(O)cc2)NC(=O)[C@@H]2CCCN2C1=O [compound 41] | 20.9 |  |
| CC[C@H](C)[C@@H]1NC(=O)[C@H](CO)NC(=O)[C@H](Cc2ccc(O)cc2)NC(=O)[C@H](CO)NC(=O)[C@H](CCC(N)=O)NC(=O)[C@H](CCC(N)=O)NC(=O)[C@@H](NC(=O)CCCCCN)CSSC[C@@H](C(=O)N[C@@H](CCCCN)C(=O)N[C@@H](CCCCN)C(N)=O)NC(=O)[C@H]([C@@H](C)O)NC(=O)[C@H](CCCNC(=N)N)NC(=O)[C@@H]2CCCN2C1=O [compound 44] | 24.9 |  |
| CC[C@H](C)[C@@H]1NC(=O)[C@@H]2CCCN2C(=O)[C@H](CC(C)C)NC(=O)[C@H](CO)NC(=O)[C@H](Cc2ccc(O)cc2)NC(=O)[C@H](CCC(N)=O)NC(=O)[C@H](CCC(N)=O)NC(=O)[C@@H](NC(=O)CCCCCN)CSSC[C@@H](C(=O)N[C@H](CCCCN)C(=O)N[C@H](CCCCN)C(N)=O)NC(=O)[C@H]([C@@H](C)O)NC1=O [compound 53] |  | 120 |
| CC[C@H](C)[C@@H]1NC(=O)[C@@H]2CCCN2C(=O)[C@H](CC(C)C)NC(=O)[C@H](CC(=O)O)NC(=O)[C@H](Cc2ccc(O)cc2)NC(=O)[C@H](CCC(N)=O)NC(=O)[C@H](CCC(N)=O)NC(=O)[C@@H](NC(=O)CCCCCN)CSSC[C@@H](C(=O)N[C@H](CCCCN)C(=O)N[C@H](CCCCN)C(N)=O)NC(=O)[C@H]([C@@H](C)O)NC1=O [compound 54] |  | 120 |
